How the values were obtained:
[1] = target: T1, Leukotriene A-4 hydrolase (Homo sapiens, UniProt P09960)
T1 sequence (P09960 whole entry): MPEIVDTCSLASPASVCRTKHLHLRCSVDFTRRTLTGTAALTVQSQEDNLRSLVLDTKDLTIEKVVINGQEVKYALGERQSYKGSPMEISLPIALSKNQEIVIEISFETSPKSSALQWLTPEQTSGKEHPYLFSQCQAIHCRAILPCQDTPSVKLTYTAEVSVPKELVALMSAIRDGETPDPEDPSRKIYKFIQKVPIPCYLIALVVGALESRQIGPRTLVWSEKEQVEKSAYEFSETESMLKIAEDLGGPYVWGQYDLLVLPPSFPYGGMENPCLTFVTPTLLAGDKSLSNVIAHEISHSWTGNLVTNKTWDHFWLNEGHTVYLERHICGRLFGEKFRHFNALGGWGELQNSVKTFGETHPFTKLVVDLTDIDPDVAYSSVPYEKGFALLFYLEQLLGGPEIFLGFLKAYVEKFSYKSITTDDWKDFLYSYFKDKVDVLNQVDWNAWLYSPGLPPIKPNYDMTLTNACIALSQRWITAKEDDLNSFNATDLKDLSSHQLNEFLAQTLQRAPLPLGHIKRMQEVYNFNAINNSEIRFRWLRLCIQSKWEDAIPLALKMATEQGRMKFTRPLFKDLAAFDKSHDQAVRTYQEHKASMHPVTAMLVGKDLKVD

[2] = target: T1, Leukotriene A-4 hydrolase; test: Binding affinity to human recombinant LTA4H by isothermal calorimetry

| Kd [2] | Structure (SMILES) | IC50 [1] |
| --- | --- | --- |
|  | O=C(c1ccncc1)c1ccc(F)cc1 | 5380 µM |
|  | O=C(c1ccncc1)c1ccc(OCCN2CCCC2)cc1 | 199 µM |
| 0.025 µM | O=C(O)CCCN1CCC[C@H]1COc1ccc(Oc2ccc(Cl)cc2)cc1 | 0.047 µM |
|  | c1ccc(Cc2ccc(OC[C@H]3CCCN3)cc2)cc1 | 0.087 µM |

— ChEMBL document CHEMBL1156785, “Discovery of 4-[(2S)-2-{[4-(4-chlorophenoxy)phenoxy]methyl}-1-pyrrolidinyl]butanoic acid (DG-051) as a novel leukotriene A4 hydrolase inhibitor of leukotriene B4 biosynthesis” (J Med Chem, 2010)
